Experiments:
[1] = target: T1, Nuclear receptor ROR-alpha (Homo sapiens) (UniProt P35398); assay: Inhibition of RORalpha (unknown origin); conditions: dose microM >10
T1 sequence (whole entry): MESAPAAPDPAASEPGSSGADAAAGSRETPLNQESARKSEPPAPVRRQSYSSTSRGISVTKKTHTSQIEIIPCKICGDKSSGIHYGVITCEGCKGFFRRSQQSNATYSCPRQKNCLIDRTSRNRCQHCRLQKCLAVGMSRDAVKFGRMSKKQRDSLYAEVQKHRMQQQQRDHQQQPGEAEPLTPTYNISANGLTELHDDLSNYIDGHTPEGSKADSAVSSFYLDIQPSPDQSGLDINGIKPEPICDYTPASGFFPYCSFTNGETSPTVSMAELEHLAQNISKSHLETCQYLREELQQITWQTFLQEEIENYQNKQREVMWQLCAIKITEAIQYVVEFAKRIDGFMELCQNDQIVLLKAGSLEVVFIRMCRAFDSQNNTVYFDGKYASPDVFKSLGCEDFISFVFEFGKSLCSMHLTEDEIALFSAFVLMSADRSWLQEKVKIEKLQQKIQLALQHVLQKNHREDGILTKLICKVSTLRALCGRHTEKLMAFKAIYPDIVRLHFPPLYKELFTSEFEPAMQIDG

Chains of the proteins cited; added tags and fusions are not shown.
UniProt Q13133, whole entry: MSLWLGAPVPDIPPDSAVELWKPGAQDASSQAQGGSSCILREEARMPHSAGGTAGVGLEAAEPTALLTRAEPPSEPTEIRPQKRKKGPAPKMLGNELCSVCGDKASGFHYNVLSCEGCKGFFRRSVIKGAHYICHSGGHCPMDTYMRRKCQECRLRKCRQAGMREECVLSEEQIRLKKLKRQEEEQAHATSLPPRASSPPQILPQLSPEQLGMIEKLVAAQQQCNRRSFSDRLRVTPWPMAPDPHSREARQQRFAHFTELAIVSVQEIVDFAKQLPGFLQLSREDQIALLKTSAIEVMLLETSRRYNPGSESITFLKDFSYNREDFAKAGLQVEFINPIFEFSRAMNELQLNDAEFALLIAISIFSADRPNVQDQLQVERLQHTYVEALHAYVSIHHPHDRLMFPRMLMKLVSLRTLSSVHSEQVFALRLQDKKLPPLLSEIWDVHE
UniProt P55055, whole entry: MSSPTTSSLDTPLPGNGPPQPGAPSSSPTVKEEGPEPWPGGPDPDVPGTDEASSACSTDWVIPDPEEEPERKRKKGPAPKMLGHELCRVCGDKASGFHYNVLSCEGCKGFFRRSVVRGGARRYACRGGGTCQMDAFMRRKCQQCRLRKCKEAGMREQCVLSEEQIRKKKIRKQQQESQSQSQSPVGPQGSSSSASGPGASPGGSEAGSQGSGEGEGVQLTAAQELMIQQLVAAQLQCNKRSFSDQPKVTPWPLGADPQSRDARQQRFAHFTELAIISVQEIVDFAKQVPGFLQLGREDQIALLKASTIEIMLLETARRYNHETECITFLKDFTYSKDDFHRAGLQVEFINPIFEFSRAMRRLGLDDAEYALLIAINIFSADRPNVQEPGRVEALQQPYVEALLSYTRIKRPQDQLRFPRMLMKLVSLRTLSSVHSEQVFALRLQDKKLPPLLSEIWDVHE

[2] = target: T2, Nuclear receptor ROR-beta (Homo sapiens) (UniProt Q92753); assay: Inhibition of RORbeta (unknown origin); conditions: dose microM >10
T2 sequence (whole entry): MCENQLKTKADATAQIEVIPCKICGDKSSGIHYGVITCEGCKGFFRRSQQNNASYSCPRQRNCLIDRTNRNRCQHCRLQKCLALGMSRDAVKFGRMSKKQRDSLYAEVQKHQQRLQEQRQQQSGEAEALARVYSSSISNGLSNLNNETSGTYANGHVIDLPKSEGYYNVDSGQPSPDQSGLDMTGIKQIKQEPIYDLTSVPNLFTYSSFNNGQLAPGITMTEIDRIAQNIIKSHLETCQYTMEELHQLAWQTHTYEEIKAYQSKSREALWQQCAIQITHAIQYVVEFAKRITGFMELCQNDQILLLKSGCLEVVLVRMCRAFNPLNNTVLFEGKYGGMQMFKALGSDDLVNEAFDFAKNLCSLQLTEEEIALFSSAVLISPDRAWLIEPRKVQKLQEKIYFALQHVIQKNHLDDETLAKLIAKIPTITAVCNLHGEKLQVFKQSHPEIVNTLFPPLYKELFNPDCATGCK

[3] = target: Oxysterols receptor LXR-alpha (Homo sapiens) (UniProt Q13133); assay: Inhibition of LXRalpha (unknown origin); conditions: dose microM >7.5
[4] = target: Oxysterols receptor LXR-beta (Homo sapiens) (UniProt P55055); assay: Inhibition of LXRbeta (unknown origin); conditions: dose microM >3.8

`CC(C)(O)CNC(=O)[C@@H]1CC[C@@]2(S(=O)(=O)c3ccc(F)cc3)c3ccc(C(F)(C(F)(F)F)C(F)(F)F)cc3CC[C@@H]12` gave an INH [1] of over 10 µM, an INH [2] of over 10 µM and an INH [3] of over 7.5 µM. It also gave an INH [4] of over 3.8 µM.

Source: ChEMBL document CHEMBL4673237, “Annulation reaction enables the identification of an exocyclic amide tricyclic chemotype as retinoic acid Receptor-Related orphan receptor gamma (RORγ/RORc) inverse agonists” (Bioorg Med Chem Lett, 2020)
